# Apparent affinities of Ab-14 variants for a coronavirus HR2 peptide

Reference: Engelhart et al. 2022, doi:10.1038/s41597-022-01779-4. File: FLAb, binding data.

Target: peptide PDVDLGDISGINAS, taken from heptad repeat 2 (HR2) of SARS-CoV-2 spike.

Ab-14 is the parent antibody, in scFv form: VH, then the linker GGGGSGGGGSGGGGS, then VL. The light chain is unchanged in all variants.
VH: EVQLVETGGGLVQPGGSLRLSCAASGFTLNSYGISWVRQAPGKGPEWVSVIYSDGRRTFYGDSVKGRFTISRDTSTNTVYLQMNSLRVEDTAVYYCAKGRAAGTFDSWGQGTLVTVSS
VL: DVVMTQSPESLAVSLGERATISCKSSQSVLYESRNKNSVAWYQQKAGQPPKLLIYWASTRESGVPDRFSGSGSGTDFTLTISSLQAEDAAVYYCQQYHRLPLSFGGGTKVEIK

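The parent was found by panning a naive human phage display library on the peptide. Variants in AAYL49 differ from the parent at up to three CDR positions; double and triple changes were sampled at random. AlphaSeq pools MATa yeast showing the antibodies with MATalpha yeast showing the peptide. After mating in shaken culture at 30 °C for 16 h, diploids were selected and their barcode pairs sequenced. Read counts were normalised to the haploid input and turned into Kd by a linear fit to BCL2-family pairs of known affinity, for each replicate. There are three technical replicates.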

Substitutions are numbered in sequence along the VH above, starting at 1 (not Kabat). Affinities are written as log10 Kd with Kd in nM; a lower number is a better binder. Replicates are averaged; those with no signal do not enter the mean. An entry "nd" has no value in the source: the pair was not observed among the diploids in that replicate. This suggests poor binding but is not conclusive. In this assay the parent's reference entry averaged 0.65; its copy inside this library read 4.11 (one replicate of three). Three control strains display no target. For library AAYL49, 15% of the pairings with them gave a signal, with a median of 4.06 and one signal in twenty below 2.83, so weak values seen in few replicates may be background. For each scFv, signals with the empty controls are counted beside the result, with their mean in brackets.

changes	log10 Kd, replicates	mean log10 Kd (nM)	control signals
S31M/I51Q/K65R	nd 2.93 3.64	3.29	4/9 (3.96)
S35G/V50S/G103T	nd nd nd	nd	0/9
G99Y	1.34 1.66 1.51	1.50	1/9 (3.78)
N30C/F59K/G103N	3.71 5.38 nd	4.55	6/9 (4.88)
S53E/R56D/S107G	nd nd 4.58	4.58	2/9 (5.35)
Y32L/T104Y	nd nd 4.39	4.39	0/9
G55E/T104A/S107A	nd nd nd	nd	2/9 (3.46)
G33I/T104G/S107W	nd 3.45 nd	3.45	1/9 (4.37)
F27M/D54Y/G99A	nd 3.16 nd	3.16	0/9
G26P/G61M/F105A	nd nd nd	nd	1/9 (4.24)
D54R/D62E/S63G	nd nd 5.73	5.73	3/9 (4.17)
G26D/V50N/R57W	4.16 nd 4.39	4.27	2/9 (4.69)
S53F/D54V/F59W	nd nd nd	nd	1/9 (3.62)
A101Q/A102Q/G103V	nd nd nd	nd	1/9 (3.49)
F27W/A101F	1.70 1.72 2.58	2.00	0/9
I34Y/D54V/D62K	nd nd nd	nd	0/9
S63V/A102T/G103R	nd nd nd	nd	1/9 (4.78)
G33E/I51Y/K65D	4.23 3.57 nd	3.90	1/9 (3.40)
I51D/T58N/A101H	nd nd nd	nd	0/9
D54S/G55L/R56A	nd nd nd	nd	1/9 (2.50)
I34G/S53D/T58H	nd nd nd	nd	1/9 (4.66)
F27I/S31Q/Y52H	nd 3.92 nd	3.92	3/9 (3.47)
G33M/F105I	nd 3.40 5.84	4.62	3/9 (4.28)
L29N	4.20 3.69 nd	3.94	7/9 (4.52)
N30R/S35K/K65P	nd 3.20 nd	3.20	1/9 (3.73)
I51H/D62Q	nd 4.82 nd	4.82	0/9
V50E/I51N/F105G	4.20 nd 4.75	4.48	7/9 (4.40)
S31Q/Y32C/F105G	nd nd 2.06	2.06	0/9
G55E/R56N/D106C	nd nd 4.33	4.33	1/9 (3.55)
L29W/T58A/T104S	nd nd nd	nd	0/9
G26W/R56C	3.63 2.89 2.88	3.13	2/9 (4.14)
S31L/G33M/V64I	3.70 3.37 nd	3.54	3/9 (4.53)
F27M/Y32N/T104K	4.26 4.47 4.25	4.32	4/9 (4.32)
S31W/Y32E/D54Q	nd nd 2.49	2.49	1/9 (3.52)
F27T/G55V/S107D	nd nd nd	nd	0/9
F27H/V50P/R57N	nd 4.67 5.11	4.89	4/9 (4.69)
S53Y/R57H/Y60F	nd nd nd	nd	0/9
G26Y/T28P/Y32K	nd nd nd	nd	0/9
I51V/Y60A	nd nd 3.50	3.50	5/9 (4.69)
Y52M/R100M/A101F	4.47 nd nd	4.47	3/9 (4.49)
G33K/G103S/F105E	nd nd nd	nd	0/9
R56M/R57K/D106E	nd nd nd	nd	0/9
I34Y/G61E/D62Q	4.22 4.82 5.43	4.82	3/9 (3.84)
N30C/R57C/G103W	nd nd nd	nd	0/9

The opening 3 entries, copied out:

{"changes": "S31M/I51Q/K65R", "log10 Kd, replicates": "nd 2.93 3.64", "mean log10 Kd (nM)": "3.29", "control signals": "4/9 (3.96)"}
{"changes": "S35G/V50S/G103T", "log10 Kd, replicates": "nd nd nd", "mean log10 Kd (nM)": "nd", "control signals": "0/9"}
{"changes": "G99Y", "log10 Kd, replicates": "1.34 1.66 1.51", "mean log10 Kd (nM)": "1.50", "control signals": "1/9 (3.78)"}